Target: Mu-type opioid receptor (Homo sapiens, UniProt P35372)
Test: Displacement of [3H]-naloxone from human mu opioid receptor expressed in HEK293 cell membranes

The chains behind the UniProt entries cited, without tags or fusion partners.
UniProt P35372, whole entry: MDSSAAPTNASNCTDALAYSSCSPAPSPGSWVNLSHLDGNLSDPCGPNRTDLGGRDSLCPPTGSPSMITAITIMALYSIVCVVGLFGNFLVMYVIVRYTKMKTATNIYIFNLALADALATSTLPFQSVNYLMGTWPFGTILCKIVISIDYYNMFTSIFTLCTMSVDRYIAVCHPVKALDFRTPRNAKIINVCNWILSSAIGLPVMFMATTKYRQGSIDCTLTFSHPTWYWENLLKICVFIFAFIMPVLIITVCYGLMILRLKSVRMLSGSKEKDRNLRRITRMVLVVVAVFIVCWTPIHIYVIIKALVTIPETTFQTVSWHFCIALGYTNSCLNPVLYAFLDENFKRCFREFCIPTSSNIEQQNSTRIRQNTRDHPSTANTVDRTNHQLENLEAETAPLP

With `O=C1NCN(c2ccccc2)C12CCN([C@H]1Cc3cccc4cccc1c34)CC2` the Ki was 5.9 nM.

Source: ChEMBL document CHEMBL4428025 (J Med Chem, 2016)
